# Only a part is listed here, and it is no random draw. Calls of active or inactive are those of the source.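 Rule for the calls: active = inhibition at or above 40%; inactive = inhibition below 40%.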
# Target: Prothrombin (Homo sapiens) (UniProt P00734)
# Test: blockers of thrombin peptide substrate cleavage – biochemical, 1536-well, fluorogenic AMC substrate, counter-screen for coagulation protease inhibitor project, primary screen (AID 1046);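 note: 0% = enzyme with no compound and 100% = wells without enzyme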
# Settings: alpha-thrombin, Boc-VPR-AMC fluorogenic substrate cleavage; at 5 µM; active compounds read high
row,SMILES,inhibition
1,COP1(=S)c2c(C)nn(CCC#N)c2N=C(c2ccc(F)cc2)N1C (stereo not drawn),inactive: -7.71%
2,O=C(COc1ccccc1)OC1CN2CCC1CC2 (stereo not drawn),inactive: -4.08%
3,CCOC(=O)c1ccc(NC(=O)C(C)(CCl)SC)cc1 (stereo not drawn),inactive: -3.78%
4,CCC(C)N(CC(C)C)C(=S)SC(NC(C)=O)C(Cl)(Cl)Cl (stereo not drawn),inactive: 3.43%
5,CCOC(=O)Nc1ccc([As](=O)(O)O)c(O)c1,inactive: -2.07%
6,Cc1cc(SC(NC(=O)c2ccccc2)C(Cl)(Cl)Cl)nc(C(C)C)n1 (stereo not drawn),inactive: -0.41%
7,CCOC(=O)Nc1cccc([As](=O)(O)O)c1,inactive: -6.94%
8,O=[N+]([O-])c1ccc(Nc2ccc(Oc3ccc([N+](=O)[O-])cc3[N+](=O)[O-])cc2)c([N+](=O)[O-])c1,inactive: -2.14%
9,Cc1cc(SC(NC=O)C(Cl)(Cl)Cl)ncn1 (stereo not drawn),inactive: 0.39%
10,O=P(Nc1ccccn1)(c1cccc2ccccc12)c1cccc2ccccc12,inactive: 0.28%
11,O=[As](O)(c1ccc(O)cc1)c1ccccc1O,inactive: -3.12%
12,C[As](=O)(O)c1cccc(C(=O)O)c1,inactive: 1.87%
13,Cc1ccc2nc3c(c(C)c2c1)CC(C(Cl)Cl)S3 (stereo not drawn),inactive: -9.19%
14,CC(Cc1ccc(O)cc1)NCC(O)c1cc(O)cc(O)c1 (stereo not drawn),inactive: 3.11%
15,Cc1ccc(OP(=O)(Nc2ccc([N+](=O)[O-])cn2)Oc2ccc(C)cc2)cc1,inactive: -2.75%
16,CC(C)c1ccc(OP(=O)(Nc2ccccn2)Oc2ccccc2F)cc1 (stereo not drawn),inactive: -5.96%
17,ClCCSc1nnc(-c2cccnc2)o1,inactive: 1.37%
18,O=[N+]([O-])c1cc([N+](=O)[O-])c(-c2ccn[nH]2)s1,inactive: -2.14%
19,CC(C)NC(=O)NP(=O)(Oc1ccccc1)Oc1ccccc1,inactive: -2.16%
20,CCN(CC)C(=S)SC(NC=O)C(Cl)(Cl)Cl (stereo not drawn),inactive: -0.3%
21,Cc1cc(=O)[nH]c(N[N+](=O)[O-])n1,inactive: -11.7%
22,O=C(OC1CN2CCC1CC2)C12CC3CC(CC(C3)C1)C2 (stereo not drawn),inactive: -11.3%
23,Cc1c2c(nc3ccccc13)SC(C(Cl)Cl)C2 (stereo not drawn),inactive: -0.44%
24,COc1cc(I)ccc1[As](=O)(O)O,inactive: -1.51%
25,COc1ccc(N/C(=N/P(=O)(N2CCOCC2)N2CCOCC2)N2CCOCC2)cc1,inactive: 1.54%
26,O=[As](O)(O)c1cccnc1,inactive: -4.18%

row,SMILES,inhibition
1,COc1cc(C(=O)NCC2(N3CCOCC3)CCCCC2)cc(Cl)c1OC(C)C,inactive: -5.68%
2,O=C(OC1CN2CCC1CC2)c1ccc(Cl)cc1 (stereo not drawn),inactive: -2.7%
3,Cc1cccc(OCC(=O)OC2CN3CCC2CC3)c1 (stereo not drawn),inactive: 3.55%
4,O=[As](O)(c1cccc(O)c1)c1cccc(O)c1,inactive: -5.6%
5,CCCOP(=S)(Nc1nc(N)cc(=O)[nH]1)OCCC,inactive: -1.24%
6,Cc1ccc(NCCc2c([N+](=O)[O-])cc([N+](=O)[O-])cc2[N+](=O)[O-])cc1,inactive: -0.58%
7,Nc1cccc2c([As](=O)(O)O)cccc12,inactive: -4.79%
8,CCOP(=O)(Nc1cccc2ccccc12)OCC,inactive: -1.67%
9,COc1cc(C2NCCC3(OCCO3)C2(C)C)cc(OC)c1OC (stereo not drawn),inactive: 0%
10,CS(=O)(=O)c1cc([N+](=O)[O-])c2no[n+]([O-])c2c1,inactive: 1.22%
11,O=P(Nc1nccs1)(Oc1ccccc1)Oc1ccccc1,inactive: 4.59%
12,O=P(Nc1nccs1)(c1ccccc1)c1nc2ccccc2s1 (stereo not drawn),inactive: 1.26%
13,CCOP1(=S)c2c(C)nn(CCC#N)c2N=C(c2ccccc2F)N1C (stereo not drawn),inactive: -7.64%
14,O=C(O)COc1ccc([As](=O)(O)O)cc1[N+](=O)[O-],inactive: -3.28%
15,Nc1ccccc1[As](=O)(O)c1ccccc1,inactive: -3%
16,NC(=O)Nc1ccc([As](=O)(O)O)cc1,inactive: 0.16%
17,O=[N+]([O-])c1ccc2c(c1)nnn2O,inactive: 1.55%
18,CCOP1(=S)c2c(C)nn(CCC#N)c2N=C(c2ccc(F)cc2)N1C (stereo not drawn),inactive: -11.3%
19,CN(C(=O)Cc1ccccc1)[C@@H]1CC[C@]2(CCCO2)C[C@H]1N1CCCC1,inactive: 2.48%
20,CC1CCC(C(C)C)C(OP(=O)(Nc2ccccn2)c2ccccc2)C1 (stereo not drawn),inactive: 1.35%
21,Cc1nn(-c2ccccc2)c2c1P(=O)(N1CCOCC1)N(C)C(c1ccccc1)=N2 (stereo not drawn),inactive: -3.87%
22,O=C(/C=C/c1ccccc1)OC1CN2CCC1CC2 (stereo not drawn),inactive: 0.16%
23,CN(C)C1(CNC(=O)c2ccc(S(C)(=O)=O)cc2)CCCCC1,inactive: -5.7%
24,O=P1(Nc2ncccn2)COc2ccccc2OC1,inactive: -8.03%
25,Cc1ccc(OCC(=O)OC2CN3CCC2CC3)cc1 (stereo not drawn),inactive: -11.6%
26,O=[As](O)(c1cccs1)c1cccs1,inactive: 0.95%

row,SMILES,inhibition
1,O=P1(Nc2ccc(Br)cn2)COc2ccccc2OC1,inactive: -0.95%
2,Nc1cccc([As](=O)(O)c2ccccc2)c1,inactive: 1.91%
3,CCOP(=O)(Nc1ccc(C)cn1)OCC,inactive: 0.12%
4,O=P1(Nc2ccccn2)COc2ccccc2OC1,inactive: -8.84%
5,CC(C)(C)C(=O)NC(Sc1ncccn1)C(Cl)(Cl)Cl (stereo not drawn),inactive: -2.14%
6,Clc1n[nH]nc1-c1nn[nH][15n]1,inactive: -2.21%
7,O=[As](O)(c1ccccc1Br)c1ccccc1Br,inactive: -3.48%
8,CC(C)/C=N\N=C(\N)N[N+](=O)[O-],inactive: 4.78%
9,O=P(Nc1nccs1)(c1ccccc1)c1ccccc1,inactive: -6.48%
10,CC(C)C(=O)NC(Sc1ccccc1)C(Cl)(Cl)Cl (stereo not drawn),inactive: -5.49%
11,c1nnnn1CCn1cnnn1,inactive: -4.93%
12,O=P(Nc1ccccn1)(c1ccc(Br)cc1)c1ccc(Br)cc1,inactive: -2.6%
13,C[C@H]1OP(=O)(Oc2ccccc2)[C@H](O)[C@H](O)[C@H]1N=[N+]=[N-] (stereo partly drawn),inactive: 1.66%
14,O=P(Nc1nc2ccccc2s1)(c1ccccc1)c1ccccc1,inactive: -13.5%
15,CC(=O)NC(SC(=S)N(C)C)C(Cl)(Cl)Cl (stereo not drawn),inactive: -2.03%
16,O=[N+]([O-])c1ncn(CCn2cnc([N+](=O)[O-])n2)n1,inactive: -3.27%
17,O=[As](O)(c1ccccc1)c1ccc(O)cc1,inactive: -3.23%
18,C(Cc1nn[nH]n1)Cc1nn[nH]n1,inactive: -0.41%
19,Nc1ccc([As](=O)(O)c2ccc([N+](=O)[O-])cc2)cc1,inactive: -8.1%
20,O=C(OC1CN2CCC1CC2)c1cccc(Cl)c1 (stereo not drawn),inactive: 1.01%
21,O=C(NC1CCS(=O)(=O)C1)NP(=S)(Oc1ccccc1)Oc1ccccc1 (stereo not drawn),inactive: -7.77%
22,CCNC(=S)/N=C(\N)N[N+](=O)[O-],inactive: 2.25%
23,Cc1ccc(NP(=O)(Oc2cccc(C)c2)Oc2cccc(C)c2)nc1,inactive: -1%
24,CCOC(=O)NC(Sc1ccccc1)C(Cl)(Cl)Cl (stereo not drawn),inactive: 2.91%
25,c1ccc(-c2nn[nH]n2)c(-c2nn[nH]n2)c1,inactive: -6.89%
26,CC(=O)NC(SC(=S)N(CC(C)C)CC(C)C)C(Cl)(Cl)Cl (stereo not drawn),inactive: 21.8%

row,SMILES,inhibition
1,COC(=O)c1cc2c(s1)N=C(c1ccccc1)N(C)P2(=O)N1CCOCC1 (stereo not drawn),inactive: 0.36%
2,CCC(=O)N1C2C3N(C(=O)CC)C1C1N(C(=O)CC)C(C(N1C(=O)CC)N3C(=O)CC)N2C(=O)CC,inactive: 0.83%
3,O=c1c2cc([N+](=O)[O-])ccc2[nH]c2c([N+](=O)[O-])cc([N+](=O)[O-])cc12,inactive: -4.92%
4,CN(C)C(=O)Oc1noc2ccccc12,inactive: -2.41%
5,Cc1ccccc1OP(=O)(Nc1ccccn1)Oc1ccccc1C,inactive: -0.77%
6,CCOc1ccc(C2=NCC(CBr)S2)cc1 (stereo not drawn),inactive: -0.06%
7,O=P1(Nc2nc3ccc(Cl)cc3s2)COc2ccccc2O1 (stereo not drawn),inactive: 0.55%
8,CC(C)(C)C(=O)NC(Sc1ccccc1)C(Cl)(Cl)Cl (stereo not drawn),inactive: -4.06%
9,C[C@H]1OP(=O)(Oc2ccccc2)C[C@@H]2O[C@@H]21 (stereo partly drawn),inactive: 0.56%
10,C[C@@H]1C=CCP(=O)(Oc2ccccc2)O1 (stereo partly drawn),inactive: -0.06%
11,CC(=O)Nc1ccc(Oc2c([N+](=O)[O-])cc([N+](=O)[O-])cc2[N+](=O)[O-])cc1,inactive: -4.65%
12,CC(=O)Nc1ccc([As](=O)(O)O)c(O)c1,inactive: -5.73%
13,NC(=O)c1cc([N+](=O)[O-])cc([N+](=O)[O-])c1N,inactive: -5.78%
14,Cc1ccc(N/C(=N/P(=O)(N2CCOCC2)N2CCOCC2)N2CCOCC2)cc1,inactive: -2.21%
15,Cc1ccc(OP(=O)(Nc2nccs2)Oc2ccc(C)cc2)cc1,inactive: -0.7%
16,COc1ccccc1OP(=O)(Nc1ccc(C)cn1)Oc1ccccc1OC,inactive: -10.6%
17,CN1CCCC(OC(=O)C(c2ccccc2)c2ccccc2)C1 (stereo not drawn),inactive: -3.41%
18,Clc1ccc(Cl)c(NC2=NCC(CBr)S2)c1 (stereo not drawn),inactive: -4.03%
19,Nc1cc(N)c2nonc2c1[N+](=O)[O-],inactive: -0.06%
20,CC(C)CC(=O)NC(Sc1ccc(Cl)cc1)C(Cl)(Cl)Cl (stereo not drawn),inactive: 4.36%
21,O=C(NC(Sc1ccncn1)C(Cl)(Cl)Cl)c1ccccc1 (stereo not drawn),inactive: -2.31%
22,Cc1c2non([O-])c-2c(C)[n+](=O)[n+]1[O-],inactive: 30.8%
23,Oc1ccccc1CNc1ccccn1,inactive: 0.24%
24,CC(=O)Nc1ccc([As](=O)(O)O)cc1,inactive: 1.87%
25,O=C(O)c1ccccc1[As](=O)(O)O,inactive: -3.36%
